This is an account of results in PMC11163988, “Cloning, expression, and purification of an α-carbonic anhydrase from Toxoplasma gondii to unveil its kinetic parameters and anion inhibition profile” (Journal of Enzyme Inhibition and Medicinal Chemistry, 2024).

Broadly, the Ki is a dissociation constant, usually derived from enzyme kinetics or from competition with a known ligand. A low value points to tighter binding.

In the test the target is hCA II (Homo sapiens, UniProt P00918). Briefly: stopped-flow CO2 hydrase assay, hCA II. Type of test: biochemical.

`CCN(CC)C(=S)S` [Et2NCS2^–, N,N-diethyldithiocarbamate] showed a Ki (pH 7.5) of 3.1 mM. Where the note is “CO2 hydrase stopped-flow assay, 20 mM Hepes pH 7.5, 20 mM NaClO4, mean from 3 assays”, `NS(=O)(=O)O` [H2NSO3H, sulphamic acid] yielded a Ki of 0.39 mM. `O=NO` [NO2^–, nitrite]: affinity (pH 7.5) was put at a Ki of 63 mM.
